Assay results from patent publication US20220296584A1, “Membrane Active Molecules” (priority 2017, published 2022).
Where two headings read alike, the source gives them in different places.

System: mice
Conditions: intravenously

## ethyl isovaleric acid
250 mM solution in intralipid
  Lethality: lethal
1M solution in intralipid
  Lethality: lethal
